According to patent US11103509B2 (University of Kentucky Research Foundation, priority 2018, dated 2021):

Columns and labels:
[1] = molecular target: T1, human mPGES-1 (Homo sapiens, UniProt O14684); experiment: in vitro inhibitory activity against human mPGES-1 (PGE2 enzyme immunoassay); type: biochemical
T1 construct: made in house
T1 sequence (O14684 1-152): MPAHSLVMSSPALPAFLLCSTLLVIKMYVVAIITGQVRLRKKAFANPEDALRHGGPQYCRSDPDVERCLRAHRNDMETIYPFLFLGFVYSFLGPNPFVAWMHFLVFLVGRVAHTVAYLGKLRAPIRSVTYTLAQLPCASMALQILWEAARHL
Procedure: The above computational predictions were followed by in vitro activity assays for their actual inhibitory activity against human mPGES-1 using an ELISA assay previously-described.^16-17, 19 Specifically, a total of 18 FDA-approved drugs were assayed for their inhibitory activity against human mPGES-1.
The protocol for the protein preparation and in vitro activity assays were the same as described previously.^69-72 The enzyme activity assays were performed on ice in 1.5 ml microfuge tubes by using the expressed human mPGES-1. The reaction mixture contained: 0.2 M Na2HPO4/NaH2PO4, pH 7.2, 10 μL; 0.1 M GSH, 2.5 μL; diluted microsomal enzyme (80 μg/mL), 1 μL; PGH2 (0.31 mM in DMF), 5 μL; 1 μL inhibitor; and H2O in a final reaction volume of 100 μL. PGH2 was stored in dry ice and used to initiate the reaction. Compounds were incubated with the enzyme for 15 min at room temperature before the addition of cold PGH2 (1 μM final) to initiate the enzyme reaction. After 30 s, 10 μL of SnCl2 (40 mg/mL) in ethanol was added to stop the reaction. The non-enzymatic conversion of PGH2 to PGE2 was performed in the same buffer devoid of enzyme. The reaction mixture was placed on ice until PGE2 production was determined by the PGE2 enzyme immunoassay as described earlier. IC50 values of the inhibitors were calculated by using the GraphPad Prism 6.0.

[2] = human, dose 900 mg, tablets, daily oral, trial EGF10004; read-out: Cmax (μM) in plasma; cited from earlier work
[3] = test system: pain in cancer patients; details: NCT00490139 Group III: oral lapatinib 1500 mg daily, 52 weeks; cited from earlier work

Row | Compound | IC50 [1] [µM] | Cmax [2] [µM] | Back Pain, Patient counts [3]
1 | C[C@]12C=CC(=O)C=C1CC[C@@H]1[C@@H]2[C@@H](O)C[C@@]2(C)[C@H]1CC[C@]2(O)C(=O)CO [Prednisolone] | 12.6 ± 1.6 |  | 
2 | CS(=O)(=O)CCNCc1ccc(-c2ccc3ncnc(Nc4ccc(OCc5cccc(F)c5)c(Cl)c4)c3c2)o1 [lapatinib] |  | 2.93 | 119/2057
